Measured values: patent publication CN117396506A (NOVARTIS AG, dated 2024)

Key:
重组人IL-18 = biological target: T1, 重组人IL-18 (human, UniProt Q14116 37-193); experiment: SET, simultaneous target binding assays A (one target in excess, 500 pM) and B (mixture of both targets in serial dilution)
T1 construct: In the LPS/IL-12 assays the IL-18 is the native cytokine made by the blood cells; also called huIL-18; human IL-18

重组人IL-1β = biological target: T2, 重组人IL-1β (human, UniProt P01584 117-269); experiment: solution equilibrium titration (SET), single-target binding assay, MSD ECL read-out; mean KD
T2 construct: In the LPS/IL-12 assays the IL-1β is the native cytokine made by the blood cells; also called huIL-1β; IL-1b

binding result (重组人IL-18): binds
Kd (重组人IL-1β): 2.6 pM
B1: bbmAb1 (bispecific antibody, human IgG1, kappa, lambda, L234A L235A)
heavy 1: not shown
light 1: not shown
heavy 2: not shown
light 2: EIVLTQSPDFQSVTPKEKVTITCRASQSIGSSLHWYQQKPDQSPKLLIKYASQSFSGVPSRFSGSGSGTDFTLTINSLEAEDAAAYYCHQSSSLPFTFGPGTKVDIKRTVAAPSVFIFPPSDEQLKSGTASVVCLLNNFYPREAKVQWKVDNALQSGNSQESVTEQDSKDSTYSLSSTLTLSKADYEKHKVYACEVTHQGLSSPVTKSFNRGEC
